Molecular target: Amyloid-beta precursor protein (Homo sapiens, UniProt P05067)
Assay: Binding affinity to human amyloid beta (1 to 42) fibril by fluorescence intensity assay
Method in brief: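 Fibrils grown from human insulin (3 mg/mL, Tris-HCl 50 mM pH 3), E. coli-expressed human α-syn (3 mg/mL, pH 7.4) or Aβ(1–42) (0.5 mg/ml, 1% NH4OH). Fibril level taken as supernatant protein depletion. Fixed fibrils (3.5–11.35) titrated with ligand (DMSO stock diluted into 50 mM Tris-HCl pH 7.4). Plate-reader intensity read at each ligand's maximal excitation/emission wavelengths, dye blanks subtracted. Kd from single-site saturation fit.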

The chains behind the UniProt entries cited, without tags or fusion partners.
UniProt P05067, whole entry: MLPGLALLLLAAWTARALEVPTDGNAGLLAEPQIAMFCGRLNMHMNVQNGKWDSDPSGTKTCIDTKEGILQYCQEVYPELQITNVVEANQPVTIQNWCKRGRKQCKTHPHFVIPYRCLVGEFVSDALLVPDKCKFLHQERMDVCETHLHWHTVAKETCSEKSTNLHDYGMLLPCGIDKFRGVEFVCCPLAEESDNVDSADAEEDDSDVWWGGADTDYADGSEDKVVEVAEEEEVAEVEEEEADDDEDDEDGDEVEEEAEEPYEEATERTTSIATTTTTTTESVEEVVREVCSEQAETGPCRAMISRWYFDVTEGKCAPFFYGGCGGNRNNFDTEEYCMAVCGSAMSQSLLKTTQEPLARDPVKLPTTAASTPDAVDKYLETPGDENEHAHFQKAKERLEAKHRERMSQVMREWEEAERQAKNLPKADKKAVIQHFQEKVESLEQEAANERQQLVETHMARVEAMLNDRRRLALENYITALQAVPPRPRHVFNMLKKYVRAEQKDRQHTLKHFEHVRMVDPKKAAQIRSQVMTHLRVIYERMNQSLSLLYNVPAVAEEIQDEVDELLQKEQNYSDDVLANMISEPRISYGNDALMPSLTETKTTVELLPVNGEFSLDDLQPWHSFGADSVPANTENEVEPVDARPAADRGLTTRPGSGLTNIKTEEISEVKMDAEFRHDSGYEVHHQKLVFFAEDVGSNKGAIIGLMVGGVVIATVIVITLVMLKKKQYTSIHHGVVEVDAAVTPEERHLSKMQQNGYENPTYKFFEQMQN

- Kd: 384 nM
Compound: Cc1ccc2c(c1)sc(-c1ccc(N(C)C)cc1)[n+]2C [Thioflavin T, 1]

Source: BindingDB's records for doi:10.1016/j.bmc.2011.09.065 (2011)
